# Binding of CDR-mutated scFvs to a peptide of the spike HR2 region

Reference: Engelhart et al. 2022, doi:10.1038/s41597-022-01779-4. File: FLAb, binding data.

Binding partner: SARS-CoV-2 spike HR2 peptide, sequence PDVDLGDISGINAS.

Parent: Ab-14, a human scFv built as VH, the linker GGGGSGGGGSGGGGS, VL. Only the CDRs of the light chain vary.
VH: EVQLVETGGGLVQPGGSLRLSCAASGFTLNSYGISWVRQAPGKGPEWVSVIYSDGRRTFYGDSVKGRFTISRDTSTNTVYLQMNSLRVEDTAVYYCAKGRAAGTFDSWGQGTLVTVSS
VL: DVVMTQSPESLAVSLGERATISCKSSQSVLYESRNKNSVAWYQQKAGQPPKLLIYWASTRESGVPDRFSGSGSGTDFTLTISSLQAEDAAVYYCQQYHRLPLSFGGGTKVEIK

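Phage display of a naive human antibody library on the peptide gave the parent. Variants in AAYL50 differ from the parent at up to three CDR positions; double and triple changes were sampled at random. AlphaSeq pools MATa yeast showing the antibodies with MATalpha yeast showing the peptide. Mating (16 h, 30 °C) was followed by selection of diploids and sequencing of their barcodes. Scores were corrected for input abundance and mapped to Kd with protein pairs of known affinity run in the same pool. The assay was run in three technical replicates.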

Changes read parent residue, position, new residue, counted from the first residue of the VL shown. Every variant below is changed at Y31 of the VL (sequential numbering). Kd is apparent (estimated from mating counts) and averaged on the log scale over replicates with a signal. Smaller is tighter. "no signal" means that the variant was in the library but no mating with the target was seen in any replicate; the authors take this as a sign of poor binding, and no number exists.

For S26C+L30V+Y31P, the assay gave 35 nM (3 of 3 replicates).
For Y31R+T59Y, the assay gave 460 nM (3 of 3 replicates).
For S26A+Y31I+V39G, the assay gave no signal (0 of 3 replicates).
For Y31M+S62H, the assay gave 5.4 nM (3 of 3 replicates).
For Y31R+S33I+W56S, the assay gave 5.4 nM (3 of 3 replicates).
For Y31W+S38E, the assay gave 35 µM (2 of 3 replicates).
For Y31C+T59N+H98N, the assay gave 320 nM (3 of 3 replicates).
For K24L+Y31K+W56L, the assay gave 170 nM (1 of 3 replicates).
For Y31S+W56G+P101A, the assay gave 6.9 nM (3 of 3 replicates).
For Y31E+T59C+L102R, the assay gave 9.9 nM (3 of 3 replicates).
For Y31I+V39L+A40I, the assay gave 8.1 µM (1 of 3 replicates).
For Y31N+W56T+H98D, the assay gave 3.7 nM (3 of 3 replicates).
For Y31A+A57W+R60T, the assay gave no signal (0 of 3 replicates).
For S26H+Y31T+S103K, the assay gave 11 µM (3 of 3 replicates).
For S26K+Y31V+S62K, the assay gave 800 nM (3 of 3 replicates).
For Q27K+Y31C+R60C, the assay gave no signal (0 of 3 replicates).
For S25R+Y31D+R60Q, the assay gave no signal (0 of 3 replicates).
For Y31K+S38R+W56V, the assay gave 2.8 µM (1 of 3 replicates).
For Q27Y+Y31S+Q95P, the assay gave no signal (0 of 3 replicates).
For Y31I+S33W+S103N, the assay gave no signal (0 of 3 replicates).
For V29S+Y31R+Q96K, the assay gave no signal (0 of 3 replicates).
For Q27S+V29L+Y31A, the assay gave 120 nM (3 of 3 replicates).
For Y31D+W56Y+S58K, the assay gave 9.7 nM (3 of 3 replicates).
For Y31T+E32T+A40L, the assay gave no signal (0 of 3 replicates).
For Y31V+S38I+R99N, the assay gave no signal (0 of 3 replicates).
For Y31L+T59H, the assay gave 170 nM (2 of 3 replicates).
For Q27F+Y31E+T59K, the assay gave 3.3 nM (3 of 3 replicates).
For Y31V+R60L+H98M, the assay gave 6.5 nM (3 of 3 replicates).
For Y31F+S62T+P101Q, the assay gave 13 nM (3 of 3 replicates).
For Y31D+W56M+T59P, the assay gave 290 nM (1 of 3 replicates).
For K24I+Y31W, the assay gave 34 nM (3 of 3 replicates).
For Y31R+S33R+W56T, the assay gave 21 µM (2 of 3 replicates).
For Y31N+E32Q+R34D, the assay gave 5.3 nM (3 of 3 replicates).
For Q27L+Y31W+Q96K, the assay gave no signal (0 of 3 replicates).
For Q27M+Y31C+S62H, the assay gave 310 nM (3 of 3 replicates).
For Y31I+N35Y+T59K, the assay gave no signal (0 of 3 replicates).
For Y31L+Y97Q+L100G, the assay gave 320 nM (3 of 3 replicates).
For Y31R+R34F+Q95N, the assay gave 2.1 nM (3 of 3 replicates).

Top 2 of the variants detected in all replicates, tightest first:

| changes | Kd | detected |
|---|---|---|
| Y31R+R34F+Q95N | 2.1 nM | 3/3 |
| Q27F+Y31E+T59K | 3.3 nM | 3/3 |

Background: pairings of library AAYL50 with three empty control strains gave a value in 18% of cases (median 15 µM, 5th percentile 970 nM). Values in that range, when seen in few replicates, are hard to tell from nonspecific mating. For reference, the parent read 4.4 nM as the reference entry and 48 nM as a member of this library.